Assay [1] in a line: Displacement of 3H-N-Methylspiperone from DRD4 L3.28F mutant in human HEK293T cells membrane assessed as inhibition constant incubated for 2 hrs by radioligand competition assay.
Assay [2] is described as follows: Displacement of 3H-N-Methylspiperone from DRD4 F2.61V / L3.28F mutant in human HEK293T cells membrane assessed as inhibition constant incubated for 2 hrs by radioligand competition assay. Background: Loss of bound radioactivity is the signal in a displacement assay; it reports binding, not function.
Assay [3] is described as follows: Displacement of 3H-N-Methylspiperone from DRD2 V2.61F mutant in human HEK293T cells membrane assessed as inhibition constant incubated for 2 hrs by radioligand competition assay.
The nature of assay [4]: Displacement of 3H-N-Methylspiperone from DRD2 F3.28L mutant in human HEK293T cells membrane assessed as inhibition constant incubated for 2 hrs by radioligand competition assay.
Assay [5] can be described thus: Displacement of 3H-N-Methylspiperone from DRD2 V2.61F / F3.28L mutant in human HEK293T cells membrane assessed as inhibition constant incubated for 2 hrs by radioligand competition assay.
The target of assay [6] is T1, D(4) dopamine receptor (Homo sapiens, UniProt P21917). Put plainly: Displacement of 3H-N-Methylspiperone from DRD4 in human HEK293T cells membrane assessed as inhibition constant incubated for 2 hrs by radioligand competition assay.
A further assay deals with D(2) dopamine receptor (Homo sapiens, UniProt P14416). Put plainly: Displacement of 3H-N-Methylspiperone from DRD2 in human HEK293T cells membrane assessed as inhibition constant incubated for 2 hrs by radioligand competition assay.
The next assay has as its target D(3) dopamine receptor (Homo sapiens, UniProt P35462). Put plainly: Displacement of 3H-N-Methylspiperone from DRD3 in human HEK293T cells membrane assessed as inhibition constant incubated for 2 hrs by radioligand competition assay.
The target of assay [7] is T1, D(4) dopamine receptor. Briefly: Agonist activity at DRD4 expressed in human HEK293T cells assessed as cAMP accumulation incubated for 15 mins by split-luciferase-based biosensor analysis. (In general: cAMP levels reflect the balance of adenylyl cyclase and phosphodiesterase activity.)
Assay [8] is described as follows: Displacement of 3H-N-Methylspiperone from DRD4 F2.61V mutant in human HEK293T cells membrane assessed as inhibition constant incubated for 2 hrs by radioligand competition assay.
Assay [9] can be described thus: Bios factor, ratio of agonist activity at DRD4-mediated arrestin signaling to agonist activity at DRD4-mediated G protein signaling in human HEK293T cells relative to quinpirole. The note with it: condition cognitive impairment; condition parkinson disease; condition schizophrenia.
Assay [10] in a line: Agonist activity at DRD3 Y3657.35V mutant expressed in human HEK293T cells assessed as Galphai/o constitutive activity at 1 uM incubated for 15 mins in presence of pertussis toxin and isoproterenol by split-luciferase-based cAMP biosensor analysis. The following applies: condition cognitive impairment, condition parkinson disease, condition schizophrenia, 0.25 h.

Sequences of proteins named here, by UniProt entry; tags and fusion partners are left off.
UniProt P21917, whole entry, looked up: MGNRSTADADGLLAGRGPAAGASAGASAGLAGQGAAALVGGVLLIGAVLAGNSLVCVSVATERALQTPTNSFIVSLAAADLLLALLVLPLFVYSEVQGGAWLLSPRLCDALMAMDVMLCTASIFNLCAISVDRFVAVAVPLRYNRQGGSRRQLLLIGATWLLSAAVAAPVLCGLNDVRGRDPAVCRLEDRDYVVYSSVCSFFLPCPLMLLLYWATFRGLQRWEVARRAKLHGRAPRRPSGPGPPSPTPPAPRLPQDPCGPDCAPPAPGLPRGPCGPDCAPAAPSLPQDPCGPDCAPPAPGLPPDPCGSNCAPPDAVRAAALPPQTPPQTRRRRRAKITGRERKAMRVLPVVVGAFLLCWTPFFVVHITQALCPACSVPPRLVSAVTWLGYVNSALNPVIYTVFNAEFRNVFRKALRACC
UniProt P14416, whole entry, looked up: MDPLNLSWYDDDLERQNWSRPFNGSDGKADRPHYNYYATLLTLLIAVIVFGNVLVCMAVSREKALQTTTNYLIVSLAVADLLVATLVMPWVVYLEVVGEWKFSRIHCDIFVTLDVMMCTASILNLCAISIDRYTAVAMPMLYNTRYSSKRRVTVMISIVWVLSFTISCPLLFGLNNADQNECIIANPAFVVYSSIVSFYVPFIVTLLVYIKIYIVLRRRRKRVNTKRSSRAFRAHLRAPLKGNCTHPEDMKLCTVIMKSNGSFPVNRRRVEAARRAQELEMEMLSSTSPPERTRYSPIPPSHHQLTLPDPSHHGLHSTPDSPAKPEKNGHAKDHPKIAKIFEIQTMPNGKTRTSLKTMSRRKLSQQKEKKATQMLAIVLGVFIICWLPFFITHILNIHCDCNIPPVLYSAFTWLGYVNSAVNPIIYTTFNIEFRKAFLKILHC
UniProt P35462, whole entry, looked up: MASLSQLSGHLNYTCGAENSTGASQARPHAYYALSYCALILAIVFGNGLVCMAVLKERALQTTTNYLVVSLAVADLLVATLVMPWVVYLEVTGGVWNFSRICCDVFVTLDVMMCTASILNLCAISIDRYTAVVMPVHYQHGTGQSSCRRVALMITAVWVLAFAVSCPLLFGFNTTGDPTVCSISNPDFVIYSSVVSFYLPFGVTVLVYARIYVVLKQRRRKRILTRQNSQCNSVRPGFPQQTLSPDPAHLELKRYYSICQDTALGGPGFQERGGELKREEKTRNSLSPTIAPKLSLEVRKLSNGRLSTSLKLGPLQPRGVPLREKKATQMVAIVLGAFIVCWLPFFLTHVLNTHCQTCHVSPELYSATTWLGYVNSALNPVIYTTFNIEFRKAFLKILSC

Structures are written as SMILES.

For orientation: Ki means the equilibrium dissociation constant of an inhibitor or competing ligand from its target. Broadly, the pKi is −log10 of the Ki, conventionally taken in molar units. In general, EC50 refers to the concentration at which the effect is half-maximal.

On to `CN1CN(c2ccccc2)C2(CCN(CCCC(=O)c3ccc(F)cc3)CC2)C1=O`, for which the inhibition constant Ki was determined as 9.94 nM in assay [1]; 2.67 nM in assay [2]; 0.63 nM in assay [3]; 0.58 nM in assay [4]; 0.79 nM in assay [5]. Moreover, the pKi in assay [1] turned out to be 8.02; in assay [2], 8.6; in [3], 9.2; in assay [4], 9.24; in [5] it was 9.18.
As for `Cn1nccc1CNCCNc1cccc(Br)c1`, the Ki at D(4) dopamine receptor [6] is 840 nM; in assay [2], more than 10000 nM; at D(2) dopamine receptor it was more than 10 µM; on D(3) dopamine receptor, 1.9 µM. Also, the EC50 at D(4) dopamine receptor [7] came out at 226 nM.
In the case of `Cc1ncc(CN2CC=C(c3ccccc3)CC2)c(N)n1`, the inhibition constant Ki at D(4) dopamine receptor [6] is 43.7 nM; in assay [8], 4290 nM; in [1] it was 806 nM; in [2] it was 6820 nM; in [3] it was 5260 nM; in assay [4], 1860 nM. In addition, in [5], the Ki was 376 nM. In addition, the pKi on D(4) dopamine receptor [6] was 7.37; in assay [8] it was 5.37; in assay [1], 6.1; in [2] it was 5.2; in assay [3], 5.35; in assay [4], 5.75. The pKi in [5] is 6.44. The Ratio in assay [9] was determined as 1.1.
Regarding `Cc1c(C2CCN(CCc3ccccc3)CC2)noc1-c1ccc(Cl)cc1`, the inhibition constant (Ki) in assay [8] was 59.9 nM; in assay [1], 292 nM; in [2] it was 162 nM; in [3], 381 nM; in assay [4], 1430 nM; in assay [5], 436 nM. For the same compound, the negative-log Ki (pKi) stood at 7.26 in assay [8]; 6.54 in [1]; 6.81 in assay [2]; 6.44 in [3]; 6.37 in assay [5].
Take `Clc1ccc(N2CCN(Cc3c[nH]c4ncccc34)CC2)cc1`: the Ki in assay [8] was found to be 289 nM; in assay [1], 78.1 nM; in assay [2], 259 nM; on D(2) dopamine receptor, 9.11 µM; in assay [3] it was 339 nM; in assay [4] it was 751 nM. Also, the inhibitory constant (Ki) in [5] stood at 154 nM. For the same compound, the pKi in assay [8] turned out to be 6.55; in [1] it was 7.11; in assay [2] it was 6.59; in [3], 6.47; in assay [4] it was 6.13; in assay [5], 6.82.
For `Cc1ccc2[nH]c(CNCCC[C@H]3CCOC3)cc(=O)c2c1`, the Ki on D(4) dopamine receptor [6] is 80 nM; in assay [2] it was more than 10000 nM; on D(2) dopamine receptor, more than 10 µM; on D(3) dopamine receptor, more than 10 µM. Moreover, on D(4) dopamine receptor [7], the EC50 came to 68.3 nM. The Ratio in [9] was 7.8.
Take `Fc1ccc(N2CCN(CCC3OCCc4ccccc43)CC2)cc1` (stereo not given): the Ki at D(4) dopamine receptor [6] was found to be 11 nM; in assay [8] it was 31.4 nM; in assay [1], 326 nM; in [2], 218 nM; on D(2) dopamine receptor it was 1.64 µM; in [3], 525 nM. Further, the values for the inhibitory constant (Ki) in assay [4] and in assay [5] were 711 nM and 124 nM, respectively. Further, the pKi is 7.5 in [8]; 6.5 in assay [1]; 6.68 in assay [2]; 6.3 in [3]; 6.15 in assay [4]; 6.91 in [5].
For the compound `c1ccc(N2CCN(Cc3nc4ccccc4[nH]3)CC2)nc1`, the Ratio in assay [9] was 1.3.
As to `COc1ccccc1N1CCN(CCN(C(=O)C2CCCCC2)c2ccccn2)CC1`, the Ratio in assay [9] was determined as 1.3.
Take `c1ccc(-c2nc(CN3CCN(c4ncccn4)CC3)c[nH]2)cc1`: the Ki in [8] came to 332 nM; in assay [1], 128 nM; in assay [2] it was 280 nM; in assay [3] it was 394 nM; in assay [4], 1870 nM; in assay [5] it was 579 nM. In addition, the pKi in [8] worked out at 6.48; in [1] it was 6.89; in [2] it was 6.56; in assay [3] it was 6.41; in [4], 5.74; in assay [5], 6.24.
For the compound `O=c1cc(CNC[C@@H](CO)Cc2ccsc2)[nH]c2ccc(F)cc12`, the inhibition constant Ki at D(4) dopamine receptor [6] is 1380 nM; in assay [2], more than 10000 nM; at D(2) dopamine receptor it was more than 10 µM; at D(3) dopamine receptor it was more than 10 µM. The EC50 at D(4) dopamine receptor [7] came out at 213 nM.
With `CCc1cc(Cl)c(OC)c(C(=O)NC[C@@H]2CCCN2CC)c1O`, in [10], the Activity turned out to be 1640 fmol/mg.
For the compound `Cc1csc(CCCNCc2cc(=O)c3cc(F)ccc3[nH]2)n1`, the Ki was 50 nM at D(4) dopamine receptor [6], more than 10000 nM in assay [2], more than 10 µM on D(2) dopamine receptor and more than 10 µM at D(3) dopamine receptor. Also, the EC50 at D(4) dopamine receptor [7] was 33.4 nM. Moreover, the Ratio in [9] came to 20.

Values taken from ChEMBL document CHEMBL5715957, “D4 dopamine receptor high-resolution structures enable the discovery of selective agonists” (2017).
